# Measured values from PMC6269003, “Two New Coumarins from Micromelum falcatum with Cytotoxicity and Brine Shrimp Larvae Toxicity” (Molecules, 2012).
# System: brine shrimp larvae
# Conditions: 96 well plates, 24 h incubation
# Description: According to the method described by Wanyoike, brine shrimp eggs (Ocean Star International, Inc., USA) were hatched in a large beaker containing natural sea water (South China Sea) and they were cultured at room temperature for 48 h. With the help of a light source, the larvae grouped together on one side of the vessel and were easily collected for the assay. […] Each test was processed in triplicate with approximate ten larvae. Brine shrimps were counted under a magnifying glass after 24 h of incubation and maintaining the 96 well plates under illumination. The controls were prepared in the same manner except that the test samples were omitted.
substance,measurement,value
microfalcatin isovalerate [Compound 14],LD50 (brine shrimp),257.4 µg/mL
